Patent publication US10251849B2, “Sublingual compositions including epinephrine nanoparticles” (NOVA SOUTHEASTERN UNIVERSITY, priority 2012, dated 2019)
Counter-ions that a name gives are not always drawn.

Conditions: 0.7 mg/ml, 2 passes at 30 KPsi
Description: Samples were prepared in triplicates for each concentration, n=3. All prepared samples were processed using LV-1 High Shear Fluid Processor “Microfluidizer” (Microfluidics, Newton, Mass.) equipped with G10Z reaction chamber under various pressures ranging from 15 to 30 KPsi for single or several passes. The microfluidizer-receiving coil was immersed in ice to reduce the heat produced during the process for heat-sensitive drugs. The particle size and potential of the produced nanosuspension were measured. The nanosuspension was centrifuged at 15,000 rpm and 15° C. for 30 minutes to collect the nanoparticles, and the solvent was then removed. The collected nanoparticles were completely dried by speed vacuum concentrator or lyophilization.
Nanoparticle Characterization: The particle size distribution and zeta potential of the nanosuspension was measured before and after size reduction by volume and by intensity using Mastersizer (Malvern) and Zetasizer Nano-ZS90 (Malvern), respectively. The average of 3 measurements for each sample was reported.

SMILES: CNC[C@H](O)c1ccc(O)c(O)c1 [epinephrine bitartrate, (−)-3,4-dihydroxy-α-[(methylamino)methyl]benzyl alcohol (+)-tartrate (1:1) salt]
- Mean ± SD particles size (Z-Average): 879 ± 376 nm
